# Results taken from PubChem BioAssay AID602234 (The Scripps Research Institute Molecular Screening Center, 2012).
# Activity calls are given as the source filed them. No rule for the calls is given here.
# Experiment: SRC3 coactivator transcriptional activity inhibitors, dose response, counter-screen for SRC1 inhibitor project, cell-based, luminescence (AID 602234);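 also: HEK293 cells co-transfected with pGL4.31 reporter and pBIND-SRC3 fusion vector; potency for inhibition of reporter luminescence with Gossypol as full inhibition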
# Conditions: transfected HEK293 cells, counter-screen luciferase reporter
structure (smiles),measurement,value
O=C(N/N=C/c1cc(Br)ccc1O)C(c1ccncc1)N1CCOCC1 (stereo unspecified),IC50,inactive: > 12 µM
